In patent US20050089524A1, “Compositions and compounds for use as molecular adjuvant for a nicotine vaccine” (priority 2002, published 2005):

Legend:
C5aR = biological target: T1, C5aR (Homo sapiens, UniProt P21730); assay: Binding affinity for C5aRs on human PMNs (125I-C5a competition)
T1 construct: endogenous in cells; host or cells: intact human PMNs (polymorphonuclear leukocytes)
T1 sequence (P21730 1-350): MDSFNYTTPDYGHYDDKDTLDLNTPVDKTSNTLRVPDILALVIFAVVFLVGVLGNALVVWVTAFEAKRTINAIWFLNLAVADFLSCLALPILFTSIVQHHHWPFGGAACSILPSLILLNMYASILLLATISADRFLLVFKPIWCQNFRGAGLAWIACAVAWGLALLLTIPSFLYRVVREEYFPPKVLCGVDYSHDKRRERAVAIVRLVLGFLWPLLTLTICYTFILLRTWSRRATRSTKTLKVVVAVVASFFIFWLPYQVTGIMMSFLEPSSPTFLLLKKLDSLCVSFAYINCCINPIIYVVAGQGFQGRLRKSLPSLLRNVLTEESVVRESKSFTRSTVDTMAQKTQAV
Description: Pharmacologic assays. C5a-like agonistic activity was assessed by the ability of the peptides to induce smooth muscle contraction of human umbilical artery and […] from human PMNs according to previously published methods (Sanderson et al., 1994, supra; Sanderson et al., J. Med. Chem. 38, 3669, 1995; Finch et al., J. Med. Chem. 40, 877, 1997). Full concentration-response curves were generated for individual peptides and natural C5a in each assay and the EC50 values (the concentration of peptide producing 50% of the maximal response to each peptide) were calculated. pD2 transforms [−log EC50 (M)] were calculated for each concentration-response curve and reported as the mean±SE. Peptide binding affinity to the C5aR was evaluated on intact human PMNs by a competition assay using ^125I-C5a according to previously described methods (Sanderson et al., 1995, supra; Finch et al., 1997, supra). Statistical analysis of the values obtained from pharmacologic assays was performed using one-way analysis of variance (ANOVA).

MUC1 epitope peptide = assay: Serum antibody response to MUC1 epitope in immunized mice (RIA); assay type: in vivo; conditions: C57Bl6 and Balb/c mice, 100 μg i.p. with RIBI adjuvant, three immunizations, sera at 6 weeks
Text: iii. Animal Models. The strains of mice used for this example were inbred females 6 to 12 week old C57Bl6(H-2^b) and Balb/c (H-2^d), which were obtained from Jackson labs (Bar Harbor, Me.). […] The MUC1 peptide selected for these studies contained a motif that may bind to the H-2K^b molecule of the C57Bl6 mice; therefore, a strain of mouse that lacked this class I molecule binding motif (Balb/c) was also studied to determine the relative contribution of the class I binding motif to the antigen presentation properties of these peptides.
iv. Immunization protocol. Preimmune sera were obtained from mice, which were subsequently immunized intraperitoneally with 100 μg of the indicated peptide with RIBI adjuvant (MPL+TDM+CWS) (Sigma Immunochemicals). Animals were boosted twice at two week intervals using the same injection procedure. Sera were obtained following three immunizations (at 6 weeks).
v. Analysis of serum antibody responses. For radioimmunoassay (RIA), anti-peptide antibodies were determined, before and at different time points after immunization, in 96-well microtiter plates (Dynatech Laboratories, Inc.). […] Anti-peptide antibody titers were determined using serial dilutions of sera. […] After washing, specific radioactivity was recorded in a gamma counter (1272 CliniGamma, LKB). […]

[1] = test system: 51Cr-labeled P815S (HBsAg transfectant) target cells; assay: HBsAg-specific CTL response of immunized mice (51Cr-release assay); assay type: in vivo, BALB/c mice; conditions: s.c. in PBS, boost day 21, spleen cells day 42
human umbilical artery = assay: Smooth muscle contraction of human umbilical artery; assay type: cell-based
Description: Pharmacologic assays. […] Statistical analysis of the values obtained from pharmacologic assays was performed using one-way analysis of variance (ANOVA).

CSCC[C@H](NC(=O)[C@@H]1CCCN1C(=O)[C@H](CCCCN)NC(=O)[C@H](Cc1ccccc1)NC(=O)[C@H](CO)NC(=O)[C@@H](N)Cc1ccc(O)cc1)C(=O)N1CCC[C@H]1C(=O)N[C@@H](CC(C)C)C(=O)N[C@H](C)C(=O)N[C@@H](CCCNC(=N)N)C(=O)O
EC50 (C5aR): 2340 nM
IC50 (C5aR): 2340 nM
antibody response to MUC1 epitope (RIA) (MUC1 epitope peptide): no appreciable increase in antibody response
% Specific Lysis ([1]; Effector:Target Ratio 6.25:1): 1%
% Specific Lysis ([1]; Effector:Target Ratio 12.5:1): 0%
% Specific Lysis ([1]; Effector:Target Ratio 25:1): 2%
% Specific Lysis ([1]; Effector:Target Ratio 50:1): 1%
EC50 (human umbilical artery; concentration resulting in 50% maximum contraction): 10 nM
pD2 ± SE (human umbilical artery; −log EC50 (M), mean ± SE, n 3): 6.99 ± 0.22
